# Binding of CDR-mutated scFvs to a peptide of the spike HR2 region

Target: peptide PDVDLGDISGINAS, taken from heptad repeat 2 (HR2) of SARS-CoV-2 spike.

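The starting antibody came from a phage panning campaign against this peptide. The library (AAYL52) carries one to three amino acid substitutions per variant, with no insertions or deletions. The scFvs were displayed on barcoded MATa yeast, the peptide on MATalpha yeast. After mating in shaken culture at 30 °C for 16 h, diploids were selected and their barcode pairs sequenced. A regression on co-assayed BCL2-family reference pairs converts the normalised counts of each replicate to an apparent Kd. There are three technical replicates.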

The variants keep the heavy chain, the linker and the frameworks of Ab-95 (scFv order VH, a 15-residue (Gly4Ser)3 linker, VL).
VH: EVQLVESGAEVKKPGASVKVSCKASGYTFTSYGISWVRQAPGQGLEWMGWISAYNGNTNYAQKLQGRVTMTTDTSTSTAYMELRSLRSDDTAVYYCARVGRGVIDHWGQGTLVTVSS
VL: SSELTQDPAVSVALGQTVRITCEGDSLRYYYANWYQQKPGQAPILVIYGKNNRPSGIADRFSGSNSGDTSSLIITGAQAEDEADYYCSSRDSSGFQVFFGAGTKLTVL

Positions count from residue 1 of the parent VL; E23P puts P in place of E.
Numbers give log10(Kd / nM), so 0 is 1 nM and 3 is 1 µM. Smaller is tighter.
Replicates are averaged; those with no signal do not enter the mean.
An entry "ND" has no value in the source: the pair was not observed among the diploids in that replicate. This suggests poor binding but is not conclusive.
Empty control strains, which show no peptide, gave a signal in 28% of pairings with library AAYL52; the median was 3.91 and 95% of these signals were weaker than 2.90. No background was subtracted. Also given: how often the same scFv was detected with the empty control strains, with their mean in brackets.

changes	log10 Kd, replicates	log10 Kd (nM), mean	signal with controls
E23P D25Q S26Y	ND / ND / 3.51	3.51	0/9
L27W V97L	3.62 / 5.47 / ND	4.54	6/9 (3.41)
P54D S55A Q96C	3.74 / ND / ND	3.74	0/9
G49I K50R P54H	ND / ND / ND	ND	3/9 (5.22)
N52D R90F	ND / ND / ND	ND	1/9 (4.05)
Y31L R90V F95A	ND / ND / ND	ND	0/9
E23P S89E	ND / ND / ND	ND	0/9
Y29M P54V G94S	3.85 / 3.01 / ND	3.43	5/9 (4.08)
Y31N V97W	1.50 / 1.35 / 0.96	1.27	6/9 (3.99)
S88M S93R Q96W	3.78 / ND / 3.63	3.71	4/9 (3.63)
K50Y S93Y F98K	ND / ND / ND	ND	2/9 (3.41)
S55Q S89D V97W	ND / ND / ND	ND	1/9 (3.16)
S93K G94C	2.48 / 2.68 / 2.09	2.42	1/9 (3.84)
E23K G24Q N51F	ND / ND / ND	ND	0/9
N51R D91S	4.10 / 3.14 / ND	3.62	4/9 (4.30)
E23W D25M	2.88 / 2.55 / 2.75	2.73	2/9 (4.11)
R28M G49E P54G	2.54 / 3.43 / 2.74	2.90	0/9
Y29I Y31R S88G	3.91 / ND / ND	3.91	2/9 (3.89)
D91R	2.57 / 2.25 / 2.10	2.30	3/9 (4.36)
G24E L27V S89E	5.98 / 6.03 / ND	6.00	4/9 (4.31)
P54Q Q96I	4.08 / 3.31 / 3.20	3.53	2/9 (3.48)
S88A R90C F95A	3.58 / 3.76 / ND	3.67	2/9 (3.80)
E23Y Y31Q S55L	1.96 / 1.77 / 1.38	1.70	5/9 (3.82)
G49E K50R D91P	3.94 / 3.55 / ND	3.75	4/9 (4.17)
Y30H N51G Q96N	1.29 / 1.10 / 0.67	1.02	6/9 (4.22)
D25V S92N F95L	2.41 / 2.73 / 2.57	2.57	2/9 (3.99)
A32W S92A F98I	ND / ND / 4.78	4.78	1/9 (4.19)
S26D R53H S88Q	5.00 / 4.16 / ND	4.58	2/9 (3.83)
Y30Q R53F F98D	2.94 / 2.66 / 3.65	3.08	3/9 (3.62)
G24W S93Y Q96N	4.27 / ND / ND	4.27	3/9 (3.37)
Y29C S55L S92V	ND / 3.56 / 3.91	3.73	2/9 (3.79)
R28I Y31D N51R	3.23 / 3.10 / 2.72	3.02	1/9 (5.24)
S89T D91P S92Q	ND / 3.32 / 4.28	3.80	2/9 (4.29)
L27K R28K S88C	ND / 3.33 / 3.81	3.57	3/9 (3.94)
L27I G49Y N52F	2.92 / ND / ND	2.92	4/9 (3.64)
Y31T F95N Q96L	2.32 / 2.97 / 2.58	2.62	5/9 (3.73)
N33W N51Y F95A	ND / ND / ND	ND	1/9 (4.08)
D25H S55M S92I	2.94 / 2.71 / 2.56	2.74	3/9 (4.53)
E23W K50P G94S	3.35 / 3.33 / 4.10	3.59	2/9 (3.53)
R28H Y31L Q96H	2.83 / 2.55 / 1.84	2.41	6/9 (4.12)
G24V N33F R53F	4.64 / ND / ND	4.64	2/9 (4.04)
S88V G94E Q96S	2.68 / 2.65 / 2.70	2.68	0/9
Y30H P54S	1.03 / 1.01 / 0.24	0.76	3/9 (4.83)

The first 6 entries again:

changes	log10 Kd, replicates	log10 Kd (nM), mean	signal with controls
E23P D25Q S26Y	ND / ND / 3.51	3.51	0/9
L27W V97L	3.62 / 5.47 / ND	4.54	6/9 (3.41)
P54D S55A Q96C	3.74 / ND / ND	3.74	0/9
G49I K50R P54H	ND / ND / ND	ND	3/9 (5.22)
N52D R90F	ND / ND / ND	ND	1/9 (4.05)
Y31L R90V F95A	ND / ND / ND	ND	0/9

Data: MIT Lincoln Laboratory AlphaSeq set, Engelhart et al. 2022, doi:10.1038/s41597-022-01779-4, as distributed in FLAb.